Literature values as cited in patent US6287586A, “Pharmaceutical compositions of vanadium biguanide complexes and their use” (priority 1999, dated 2001).

Conditions: in vivo; cited from earlier work

CN(C)C(=N)N=C(N)N [Metformin, 1,1-dimethylbiguanide]
binding to liver or plasma proteins (in words): does not bind to liver or plasma proteins | metabolism by the liver (in words): not metabolized by the liver
